Test results taken from ChEMBL document CHEMBL1131619, “32-Ascomycinyloxyacetic acid derived immunosuppressants. Independence of immunophilin binding and immunosuppressive potency” (J Med Chem, 1998).

Protein sequences, listed by entry. Tags and fused reporters are not part of them.
UniProt P62942, whole entry: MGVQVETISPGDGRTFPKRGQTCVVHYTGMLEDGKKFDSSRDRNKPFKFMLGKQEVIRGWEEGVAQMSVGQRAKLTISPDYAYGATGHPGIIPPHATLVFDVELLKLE

biological target: Peptidyl-prolyl cis-trans isomerase FKBP1A (Homo sapiens, UniProt P62942); assay: Inhibitory selectivity for human FK506 binding protein 12 and human mixed lymphocyte response(MLR); format: functional

Selectivity | SMILES
2500 | CC[C@@H]1/C=C(\C)C[C@H](C)C[C@H](OC)[C@H]2O[C@@](O)(C(=O)C(=O)N3CCCC[C@H]3C(=O)O[C@H](/C(C)=C/C3CC[C@@H](OCC(=O)Nc4cccc(F)c4)[C@H](OC)C3)[C@H](C)[C@@H](O)CC1=O)[C@H](C)C[C@@H]2OC (some centres not stated)
2700 | CC[C@@H]1/C=C(\C)C[C@H](C)C[C@H](OC)[C@H]2O[C@@](O)(C(=O)C(=O)N3CCCC[C@H]3C(=O)O[C@H](/C(C)=C/C3CC[C@@H](OCC(=O)Nc4ccc(C(F)(F)F)cc4)[C@H](OC)C3)[C@H](C)[C@@H](O)CC1=O)[C@H](C)C[C@@H]2OC (some centres not stated)
62 | CC[C@@H]1/C=C(\C)C[C@H](C)C[C@H](OC)[C@H]2O[C@@](O)(C(=O)C(=O)N3CCCC[C@H]3C(=O)O[C@H](/C(C)=C/C3CC[C@@H](OCC(=O)N(C)Cc4ccccc4)[C@H](OC)C3)[C@H](C)[C@@H](O)CC1=O)[C@H](C)C[C@@H]2OC (some centres not stated)
910 | CC[C@@H]1/C=C(\C)C[C@H](C)C[C@H](OC)[C@H]2O[C@@](O)(C(=O)C(=O)N3CCCC[C@H]3C(=O)O[C@H](/C(C)=C/C3CC[C@@H](OCC(=O)Nc4ccc(Cl)c(Cl)c4)[C@H](OC)C3)[C@H](C)[C@@H](O)CC1=O)[C@H](C)C[C@@H]2OC (some centres not stated)
4.6 | CC[C@@H]1/C=C(\C)C[C@H](C)C[C@H](OC)[C@H]2O[C@@](O)(C(=O)C(=O)N3CCCC[C@H]3C(=O)O[C@H](/C(C)=C/C3CC[C@@H](OCC(N)=O)[C@H](OC)C3)[C@H](C)[C@@H](O)CC1=O)[C@H](C)C[C@@H]2OC (some centres not stated)
110 | CC[C@@H]1/C=C(\C)C[C@H](C)C[C@H](OC)[C@H]2O[C@@](O)(C(=O)C(=O)N3CCCC[C@H]3C(=O)O[C@H](/C(C)=C/C3CC[C@@H](OCC(=O)Nc4ccc(O)cc4)[C@H](OC)C3)[C@H](C)[C@@H](O)CC1=O)[C@H](C)C[C@@H]2OC (some centres not stated)
61 | CC[C@@H]1/C=C(\C)C[C@H](C)C[C@H](OC)[C@H]2O[C@@](O)(C(=O)C(=O)N3CCCC[C@H]3C(=O)O[C@H](/C(C)=C/C3CC[C@@H](OCC(=O)NCc4ccccc4)[C@H](OC)C3)[C@H](C)[C@@H](O)CC1=O)[C@H](C)C[C@@H]2OC (some centres not stated)
33 | CC[C@@H]1/C=C(\C)C[C@H](C)C[C@H](OC)[C@H]2O[C@@](O)(C(=O)C(=O)N3CCCC[C@H]3C(=O)O[C@H](/C(C)=C/C3CC[C@@H](OCC(=O)Nc4ccc(N5CCOCC5)cc4)[C@H](OC)C3)[C@H](C)[C@@H](O)CC1=O)[C@H](C)C[C@@H]2OC (some centres not stated)
8.9 | CC[C@@H]1/C=C(\C)C[C@H](C)C[C@H](OC)[C@H]2O[C@@](O)(C(=O)C(=O)N3CCCCC3C(=O)O[C@H](/C(C)=C/C3CC[C@@H](OCC(=O)OCc4ccccc4)[C@H](OC)C3)[C@H](C)[C@@H](O)CC1=O)[C@H](C)C[C@@H]2OC (some centres not stated)
3400 | CC[C@@H]1/C=C(\C)C[C@H](C)C[C@H](OC)[C@H]2O[C@@](O)(C(=O)C(=O)N3CCCC[C@H]3C(=O)O[C@H](/C(C)=C/C3CC[C@@H](OCC(=O)Nc4cccc(C(F)(F)F)c4)[C@H](OC)C3)[C@H](C)[C@@H](O)CC1=O)[C@H](C)C[C@@H]2OC (some centres not stated)

Continued, compound first:

SMILES | Selectivity
CC[C@@H]1/C=C(\C)C[C@H](C)C[C@H](OC)[C@H]2O[C@@](O)(C(=O)C(=O)N3CCCC[C@H]3C(=O)O[C@H](/C(C)=C/C3CC[C@@H](OCC(=O)Nc4ccc(F)cc4)[C@H](OC)C3)[C@H](C)[C@@H](O)CC1=O)[C@H](C)C[C@@H]2OC (some centres not stated) | 1500
CC[C@@H]1/C=C(\C)C[C@H](C)C[C@H](OC)[C@H]2O[C@@](O)(C(=O)C(=O)N3CCCC[C@H]3C(=O)O[C@H](/C(C)=C/C3CC[C@@H](OCC(=O)Nc4cccnc4)[C@H](OC)C3)[C@H](C)[C@@H](O)CC1=O)[C@H](C)C[C@@H]2OC (some centres not stated) | 33
CC[C@@H]1/C=C(\C)C[C@H](C)C[C@H](OC)[C@H]2O[C@@](O)(C(=O)C(=O)N3CCCC[C@H]3C(=O)O[C@H](/C(C)=C/C3CC[C@@H](OCC(=O)Nc4ccncc4)[C@H](OC)C3)[C@H](C)[C@@H](O)CC1=O)[C@H](C)C[C@@H]2OC (some centres not stated) | 20
CC[C@@H]1/C=C(\C)C[C@H](C)C[C@H](OC)[C@H]2O[C@@](O)(C(=O)C(=O)N3CCCC[C@H]3C(=O)O[C@H](/C(C)=C/C3CC[C@@H](OCC(=O)NC4CCCCC4)[C@H](OC)C3)[C@H](C)[C@@H](O)CC1=O)[C@H](C)C[C@@H]2OC (some centres not stated) | 4.3
CC[C@@H]1/C=C(\C)C[C@H](C)C[C@H](OC)[C@H]2O[C@@](O)(C(=O)C(=O)N3CCCC[C@H]3C(=O)O[C@H](/C(C)=C/C3CC[C@@H](OCC(=O)NCCc4ccccc4)[C@H](OC)C3)[C@H](C)[C@@H](O)CC1=O)[C@H](C)C[C@@H]2OC (some centres not stated) | 38
CC[C@@H]1/C=C(\C)C[C@H](C)C[C@H](OC)[C@H]2O[C@@](O)(C(=O)C(=O)N3CCCC[C@H]3C(=O)O[C@H](/C(C)=C/C3CC[C@@H](OCC(=O)Nc4ccc(OC)cc4)[C@H](OC)C3)[C@H](C)[C@@H](O)CC1=O)[C@H](C)C[C@@H]2OC (some centres not stated) | 1300
CCOC(=O)CO[C@@H]1CCC(/C=C(\C)[C@H]2OC(=O)[C@@H]3CCCCN3C(=O)C(=O)[C@]3(O)O[C@H]([C@@H](OC)C[C@@H](C)C/C(C)=C/[C@@H](CC)C(=O)C[C@H](O)[C@H]2C)[C@@H](OC)C[C@H]3C)C[C@H]1OC (some centres not stated) | 10
